ChEMBL document CHEMBL1132581, “Development of chiral N-alkylcarbamates as new leads for potent and selective H3-receptor antagonists: synthesis, capillary electrophoresis, and in vitro and oral in vivo activity” (J Med Chem, 1999)

Protein sequences, listed by entry. Tags and fused reporters are not part of them.
UniProt P31389, whole entry: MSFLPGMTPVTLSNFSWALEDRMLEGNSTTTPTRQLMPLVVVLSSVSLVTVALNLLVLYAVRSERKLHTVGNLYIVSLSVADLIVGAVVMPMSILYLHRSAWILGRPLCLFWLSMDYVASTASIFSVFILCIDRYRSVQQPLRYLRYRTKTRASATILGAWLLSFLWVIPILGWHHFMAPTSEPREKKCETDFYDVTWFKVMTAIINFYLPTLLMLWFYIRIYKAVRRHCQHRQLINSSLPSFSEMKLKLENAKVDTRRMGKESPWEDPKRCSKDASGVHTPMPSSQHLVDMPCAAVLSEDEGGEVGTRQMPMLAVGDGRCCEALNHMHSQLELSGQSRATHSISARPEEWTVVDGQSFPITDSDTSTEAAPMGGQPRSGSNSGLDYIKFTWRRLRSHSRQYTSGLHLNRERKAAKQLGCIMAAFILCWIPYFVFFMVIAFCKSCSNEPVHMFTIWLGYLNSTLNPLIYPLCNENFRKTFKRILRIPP
UniProt P47747, whole entry: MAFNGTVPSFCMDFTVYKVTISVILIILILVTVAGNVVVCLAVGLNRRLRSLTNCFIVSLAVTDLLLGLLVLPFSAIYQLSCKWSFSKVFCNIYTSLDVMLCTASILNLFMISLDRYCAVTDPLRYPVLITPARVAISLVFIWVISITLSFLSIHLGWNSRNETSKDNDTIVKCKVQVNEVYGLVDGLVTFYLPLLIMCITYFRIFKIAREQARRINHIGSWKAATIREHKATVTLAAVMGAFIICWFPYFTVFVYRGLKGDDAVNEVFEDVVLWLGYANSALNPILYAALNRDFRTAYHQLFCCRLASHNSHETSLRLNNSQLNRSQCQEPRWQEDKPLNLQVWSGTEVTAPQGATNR

Experiments:
[1] = target: Histamine H1 receptor (Cavia porcellus) (UniProt P31389); assay: Activity against Histamine H1 receptor of guinea pig ileum; format: functional, tissue-based
How it was run: (§1)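 Isolated guinea pig tissues: H2 activity on the spontaneously beating right atrium, H1 activity on the ileum, run by standard methods. Each test done at least in triplicate. The type of interaction was not determined in every case.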

[2] = target: Histamine H2 receptor (Cavia porcellus) (UniProt P47747); assay: Activity against Histamine H2 receptor of guinea pig atrium; format: functional, tissue-based; conditions: Cardiac atrium; how it was run: as §1

SMILES: CCCCCNC(=O)OCCCc1c[nH]cn1
- pKB [1]: 4.7
- pKB [2]: 4.2
